In this assay the target is R132H mutant IDH1 enzyme (Homo sapiens (Human), UniProt O75874, R132H). As to the kind of experiment: R132H IDH1 Enzymatic Assay. The format is biochemical. Conditions: R132H mutant IDH1 enzyme 1.5 nM final; luminescence readout; read-out: IC50.

By UniProt entry, the sequences of proteins in these tests, tags left out.
UniProt O75874, whole entry R132H: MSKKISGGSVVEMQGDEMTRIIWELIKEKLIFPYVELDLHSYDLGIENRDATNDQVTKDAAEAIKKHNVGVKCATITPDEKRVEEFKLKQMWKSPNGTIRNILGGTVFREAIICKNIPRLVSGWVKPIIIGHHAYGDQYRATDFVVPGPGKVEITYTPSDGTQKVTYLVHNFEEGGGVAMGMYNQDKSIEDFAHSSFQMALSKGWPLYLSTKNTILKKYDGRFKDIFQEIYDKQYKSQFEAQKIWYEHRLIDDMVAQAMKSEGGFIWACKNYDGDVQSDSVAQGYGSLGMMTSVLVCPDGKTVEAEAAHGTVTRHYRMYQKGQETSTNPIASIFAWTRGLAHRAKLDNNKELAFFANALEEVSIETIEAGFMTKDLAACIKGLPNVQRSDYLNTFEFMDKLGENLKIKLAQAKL

Take `O=C([C@H]1CC[C@@H](N2CC(F)(F)C2)C1)N1Cc2cccnc2Nc2ccc(N3CCOCC3)cc21` (single isomer, unassigned) [Example 477]: the IC50 is 918 nM.

`O=C([C@H]1CC[C@H](NC2(C(F)(F)F)CC2)CC1)N1Cc2cccnc2Nc2ccc(N3CCOCC3)cc21` [Example 453, trans-4-[(8-morpholin-4-yl-5,11-dihydro-6H-pyrido[2,3-b][1,5]benzodiazepin-6-yl)carbonyl]-N-[1-(trifluoromethyl)cyclopropyl]-cyclohexanamine]: the half-maximal inhibitory concentration (IC50) was 33 nM. As for `CC(C)O[C@H]1CC[C@H](C(=O)N2Cc3cccnc3Nc3ccc(N4CC5(COC5)C4)cc32)CC1` [Example 220, 6-{[trans-4-(1-methylethoxy)cyclohexyl]car-bonyl}-8-(2-oxa-6-azaspiro[3.3]hept-6-yl)-6,11-dihydro-5H-pyrido[2,3-b][1,5]benzodiazepine], the concentration for half-maximal inhibition (IC50) worked out at 165 nM. As for `CO[C@H]1CC[C@H](C(=O)N2Cc3cccnc3Nc3ccc(N4C[C@@H](C)OC[C@H]4C)cc32)CC1` [Example 224, 8-[(2R,5R)-2,5-dimethylmorpholin-4-yl]-6-[(trans-4-methoxycyclohexyl)carbonyl]-6,11-dihydro-5H-pyrido[2,3-b][1,5]benzodiazepine], the IC50 stood at 846 nM. To `CO[C@H]1CC[C@H](C(=O)N2Cc3cccnc3Nc3ccc(-c4ccnnc4)cc32)CC1` [Example 406, 6-[(trans-4-methoxycyclohexyl)carbonyl]-8-pyridazin-4-yl-6,11-dihydro-5H-pyrido[2,3-b][1,5]benzodiazepine] belongs 648 nM; to `CC(C)O[C@H]1CC[C@H](C(=O)N2Cc3cccnc3Nc3ccc(C4COC5CC5O4)cc32)OC1` (stereo partly drawn) [Example 31, (8-(2,5-dioxabicyclo[4.1.0]heptan-3-yl)-5,11-dihydro-6H-benzo[b]pyrido[2,3-e][1,4]diazepin-6-yl)((2R,5S)-5-isopropoxytetrahydro-2H-pyran-2-yl)methanone], 36 nM; to `CC(C)O[C@H]1CC[C@H](C(=O)N2Cc3cccnc3Nc3ccc(C4CCC(O)CC4)cc32)CC1` (stereo partly drawn) [Example 395, 4-(6-{[trans-4-(1-methylethoxy)cyclohexyl]carbonyl}-6,11-dihydro-5H-pyrido[2,3-b][1,5]benzodiazepin-8-yl)cyclohexanol], 4 nM. With `O=C(C1CCCCC1)N1Cc2cccnc2Nc2ccc(N3CCOCC3)cc21` [Example 94, 6-(cyclohexylcarbonyl)-8-morpholin-4-yl-6,11-dihydro-5H-pyrido[2,3-b][1,5]benzodiazepine], the IC50 was found to be 561 nM. `CO[C@H]1CC[C@H](C(=O)N2Cc3cccnc3Nc3ccc(S(=O)(=O)c4ccc(F)cc4)cc32)CC1` [Example 432, 8-[(4-fluorophenyl)sulfonyl]-6-[(trans-4-methoxycyclohexyl)carbonyl]-6,11-dihydro-5H-pyrido[2,3-b][1,5]benzodiazepine]: the IC50 is 52 nM. Regarding `C[C@H](N[C@H]1CC[C@H](C(=O)N2Cc3cccnc3Nc3ccc([C@H]4CCCOC4)cc32)CC1)C(F)(F)F` (single isomer, unassigned) [Example 462], the IC50 came to 43 nM. With `CO[C@H]1CC[C@H](C(=O)N2Cc3cccnc3Nc3ccc(N4CCn5nc(C6CC6)nc5C4)cc32)CC1` [Example 277, 8-(2-cyclopropyl-5,6-dihydro[1,2,4]triazolo[1,5-a]pyrazin-7(8H)-yl)-6-[(trans-4-methoxycyclohexyl)carbonyl]-6,11-dihydro-5H-pyrido[2,3-b][1,5]benzodiazepine], the IC50 is 519 nM. As to `CC(C)O[C@H]1CC[C@H](C(=O)N2Cc3cccnc3Nc3ccc(C4OCCOC4C)cc32)OC1` (stereo partly drawn) [Example 34, ((2R,5S)-5-isopropoxytetrahydro-2H-pyran-2-yl)(8-(3-methyl-1,4-dioxan-2-yl)-5,11-dihydro-6H-benzo[b]pyrido[2,3-e][1,4]diazepin-6-yl)methanone], the IC50 amounted to 29 nM.

Consider `CON=C1CCC(C(=O)N2Cc3cccnc3Nc3ccc(N4CC5CCC(C4)O5)cc32)CC1` (stereo not drawn) [Example 549, [4-(Methoxyimino)cyclohexyl][8-(8-oxa-3-azabicyclo[3.2.1]oct-3-yl)-5,11-dihydro-6H-pyrido[2,3-b][1,5]benzodiazepin-6-yl]methanone], for which the IC50 was 31 nM. Take `CO[C@H]1CC[C@@H](C(=O)N2Cc3cccnc3Nc3ccc(N4CCOCC4)cc32)[C@@H](C)[C@H]1C` (single isomer, unassigned) [Example 108]: the IC50 was 505 nM. To `CO[C@H]1CC[C@@H](C(=O)N2Cc3cccnc3Nc3ccc(CNC4(C(F)(F)F)CC4)cc32)CC1` [Example 485, N-({6-[(Cis-4-methoxycyclohexyl)carbonyl]-6,11-dihydro-5H-pyrido[2,3-b][1,5]benzodiazepin-8-yl}methyl)-1-(trifluoromethyl)cyclopropanamine] belongs 102 nM.

On to `CO[C@H]1CC[C@H](C(=O)N2Cc3cccnc3Nc3ccc(N4CCn5c(nnc5C(C)C)C4)cc32)CC1` [Example 266, 6-[(trans-4-methoxycyclohexyl)carbonyl]-8-[3-(1-methylethyl)-5,6-dihydro[1,2,4]triazolo[4,3-a]pyrazin-7(8H)-yl]-6,11-dihydro-5H-pyrido[2,3-b][1,5]benzodiazepine], for which the IC50 worked out at 141 nM.

In the case of “4-{[8-(2,4-dioxan-2-yl)-5,11- dihydro-6H-pyrido[2,3- b][1,5]benzodiazepin-6- yl]carbonyl}cyclohexanone O-methyloxime [Example 393]”, the IC50 was 98 nM.

For `CCO[C@@H]1CC[C@@H](C(=O)N2Cc3cccnc3Nc3ccc(N4C[C@H]5CC[C@@H]4CO5)cc32)CC1(F)F` (single isomer, unassigned) [Example 331], the IC50 came out at 3 nM. Take `O=C([C@H]1CC[C@H](OCC(F)F)CC1)N1Cc2cccnc2Nc2ccc(N3CCOCC3)cc21` [Example 163, 6-{[trans-4-(2,2-difluoroethoxy)cyclohex-yl]carbonyl}-8-morpholin-4-yl-6,11-dihydro-5H-pyrido[2,3-b][1,5]benzodiazepine]: the IC50 came to 117 nM. As to `CO[C@H]1CC[C@H](C(=O)N2Cc3cccnc3Nc3ccc(N4C[C@H](C)OC[C@@H]4C)cc32)CC1` [Example 225, 8-[(2S,5S)-2,5-dimethylmorpholin-4-yl]-6-[(trans-4-methoxycyclohexyl)carbonyl]-6,11-dihydro-5H-pyrido[2,3-b][1,5]benzodiazepine], the IC50 was determined as 474 nM. As for `CO[C@H]1CC[C@H](C(=O)N2Cc3cccnc3Nc3ccc(N4CC(C(F)(F)F)C4)cc32)CC1` [Example 416, 6-[(trans-4-methoxycyclohexyl)carbonyl]-8-[3-(trifluoromethyl)azetidin-1-yl]-6,11-dihydro-5H-pyrido[2,3-b][1,5]benzodiazepine], the IC50 was determined as 292 nM. To `CO[C@H]1CC[C@H](C(=O)N2Cc3cccnc3Nc3ccc(N4CCOC(C)(C)C4)cc32)CC1` [Example 289, 8-(2,2-dimethylmorpholin-4-yl)-6-[(trans-4-methoxycyclohexyl)carbonyl]-6,11-dihydro-5H-pyrido[2,3-b][1,5]benzodiazepine] belongs 498 nM.

As for `CCO[C@@H]1CC[C@@H](C(=O)N2Cc3cccnc3Nc3ccc(N4CC5CCC(C4)O5)cc32)CC1(F)F` [Example 159, 6-{[(1R,4R)-4-ethoxy-3,3-difluorocyclohexyl]car-bonyl}-8-(8-oxa-3-azabicyclo[3.2.1]oct-3-yl)-6,11-dihydro-5H-pyrido[2,3-b][1,5]benzodiazepine], the IC50 is 25 nM.

On to `CO[C@H]1CC[C@H](C(=O)N2Cc3cccnc3Nc3ccc(-c4cnn(C(C)C)c4)cc32)CC1` [Example 369, 6-[(trans-4-methoxycyclohexyl)carbonyl]-8-[1-(1-methylethyl)-1H-pyrazol-4-yl]-6,11-dihydro-5H-pyrido[2,3-b][1,5]benzodiazepine], for which the IC50 stood at 203 nM. With `CN(C(C1CC1)C(F)(F)F)[C@H]1CC[C@H](C(=O)N2Cc3cccnc3Nc3ccc(N4CCOCC4)cc32)CC1` (stereo partly drawn) [Example 447, trans-N-[1-cyclopropyl-2,2,2-trifluoroethyl]-N-methyl-4-[(8-morpholin-4-yl-5,11-dihydro-6H-pyrido[2,3-b][1,5]benzodiazepin-6-yl)carbonyl]cyclohexanamine], the IC50 worked out at 45 nM. In the case of `CC(C)O[C@H]1CC[C@H](C(=O)N2Cc3cccnc3Nc3ccc(N4C[C@@H]5CC[C@@H](C4)O5)cc32)CC1` [Example 252, 6-{[trans-4-(1-methylethoxy)cyclohexyl]car-bonyl}-8-[(1S,5S)-8-oxa-3-azabicyclo[3.2.1]oct-3-yl]-6,11-dihydro-5H-pyrido[2,3-b][1,5]benzodiazepine], the IC50 is 23 nM. `CO[C@H]1CC[C@H](C(=O)N2Cc3cccnc3Nc3ccc(C4=CCOCC4)cc32)CC1` [Example 514, 8-(3,6-Dihydro-2H-pyran-4-yl)-6-[(trans-4-methoxycyclohexyl)carbonyl]-6,11-dihydro-5H-pyrido[2,3-b][1,5]benzodiazepine]: the IC50 came out at 90 nM. Take `O=C(C1CCN(CC(F)(F)F)CC1)N1Cc2cccnc2Nc2ccc(N3CC4(CCCOC4)C3)cc21` [Example 328, 8-(6-oxa-2-azaspiro[3.5]non-2-yl)-6-{[1-(2,2,2-trifluoroethyl)piperidin-4-yl]carbonyl}-6,11-dihydro-5H-pyrido[2,3-b][1,5]benzodiazepine]: the IC50 came to 19 nM.

With `CC(C)O[C@H]1CC[C@H](C(=O)N2Cc3cccnc3Nc3ccc(N4C[C@]5(C)C[C@H]4CO5)cc32)CC1` (relative stereo) [Example 349, 6-{[trans-4-(1-methylethoxy)cyclohexyl]car-bonyl}-8-[(1S,4S)-1-methyl-2-oxa-5-azabicyclo[2.2.1]hept-5-yl]-6,11-dihydro-5H-pyrido[2,3-b][1,5]benzodiazepine], the IC50 is 17 nM. Turning to `COCC1COCCN1c1ccc2c(c1)N(C(=O)[C@H]1CC[C@H](OC)CC1)Cc1cccnc1N2` (stereo partly drawn) [Example 223, 6-[(trans-4-methoxycyclohexyl)carbonyl]-8-[3-(methoxymethyl)morpholin-4-yl]-6,11-dihydro-5H-pyrido[2,3-b][1,5]benzodiazepine], the IC50 was found to be 810 nM.

These data come from patent publication US10442819B2, “Tricyclic compounds as inhibitors of mutant IDH enzymes” (Merck Sharp & Dohme Corp., priority 2014, dated 2019).
